Chains of the proteins cited; added tags and fusions are not shown. Lines headed by an entry give the natural chain unless they say otherwise; changes in a name come on top.
UniProt P13922: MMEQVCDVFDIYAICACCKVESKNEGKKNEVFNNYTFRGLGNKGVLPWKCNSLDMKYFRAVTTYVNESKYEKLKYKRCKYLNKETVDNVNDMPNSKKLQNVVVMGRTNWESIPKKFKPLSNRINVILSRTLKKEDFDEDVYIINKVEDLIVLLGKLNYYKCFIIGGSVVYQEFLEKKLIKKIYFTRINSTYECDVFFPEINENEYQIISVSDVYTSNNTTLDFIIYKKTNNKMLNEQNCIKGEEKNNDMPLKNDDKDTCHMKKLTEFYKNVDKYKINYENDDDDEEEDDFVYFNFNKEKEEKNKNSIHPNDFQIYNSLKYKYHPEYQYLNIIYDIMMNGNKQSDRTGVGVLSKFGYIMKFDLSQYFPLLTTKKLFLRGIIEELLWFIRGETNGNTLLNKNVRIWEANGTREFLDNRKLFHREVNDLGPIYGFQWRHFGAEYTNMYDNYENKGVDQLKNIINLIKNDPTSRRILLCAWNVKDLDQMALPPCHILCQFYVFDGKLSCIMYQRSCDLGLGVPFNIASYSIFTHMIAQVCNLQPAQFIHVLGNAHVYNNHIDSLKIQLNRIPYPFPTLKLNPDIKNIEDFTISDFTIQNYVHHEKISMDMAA

In ChEMBL document CHEMBL1138679, “Three-dimensional quantitative structure-activity relationship analysis of a set of Plasmodium falciparum dihydrofolate reductase inhibitors using a pharmacophore generation approach” (J Med Chem, 2004):

Molecular target: Bifunctional dihydrofolate reductase-thymidylate synthase (Plasmodium falciparum K1, UniProt P13922)
Assay: Inhibition constant against Plasmodium falciparum dihydrofolate reductase

SMILES: CC1(C)N=C(N)N=C(N)N1c1cccc(Cl)c1
- Ki: 90 nM
